Measured values published in patent publication EP4821930A1, “SUBSTITUTED POLYCYCLIC COMPOUND” (dated 2026).

Sequences of proteins named here, by UniProt entry; tags and fusion partners are left off. A line that says so, or that is headed by a name, gives the form on record, which may keep a tag or linker.
UniProt O00255, with tags, fused parts or gaps: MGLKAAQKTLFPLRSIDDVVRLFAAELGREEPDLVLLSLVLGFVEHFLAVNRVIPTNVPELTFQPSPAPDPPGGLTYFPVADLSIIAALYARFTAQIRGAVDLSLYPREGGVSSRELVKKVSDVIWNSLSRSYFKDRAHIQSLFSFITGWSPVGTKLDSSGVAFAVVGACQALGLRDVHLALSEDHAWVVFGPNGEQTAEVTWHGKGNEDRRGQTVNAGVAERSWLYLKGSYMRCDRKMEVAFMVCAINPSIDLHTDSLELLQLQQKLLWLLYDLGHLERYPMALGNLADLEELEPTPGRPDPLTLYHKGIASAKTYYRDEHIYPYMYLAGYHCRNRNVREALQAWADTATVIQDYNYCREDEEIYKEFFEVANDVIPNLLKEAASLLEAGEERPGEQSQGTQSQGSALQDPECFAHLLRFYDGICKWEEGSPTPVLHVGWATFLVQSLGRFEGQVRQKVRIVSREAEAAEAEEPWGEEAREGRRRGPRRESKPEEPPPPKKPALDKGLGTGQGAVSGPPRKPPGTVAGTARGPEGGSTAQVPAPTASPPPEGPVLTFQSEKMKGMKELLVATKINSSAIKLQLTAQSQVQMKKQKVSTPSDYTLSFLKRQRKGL
UniProt O00255, with tags, fused parts or gaps M327I: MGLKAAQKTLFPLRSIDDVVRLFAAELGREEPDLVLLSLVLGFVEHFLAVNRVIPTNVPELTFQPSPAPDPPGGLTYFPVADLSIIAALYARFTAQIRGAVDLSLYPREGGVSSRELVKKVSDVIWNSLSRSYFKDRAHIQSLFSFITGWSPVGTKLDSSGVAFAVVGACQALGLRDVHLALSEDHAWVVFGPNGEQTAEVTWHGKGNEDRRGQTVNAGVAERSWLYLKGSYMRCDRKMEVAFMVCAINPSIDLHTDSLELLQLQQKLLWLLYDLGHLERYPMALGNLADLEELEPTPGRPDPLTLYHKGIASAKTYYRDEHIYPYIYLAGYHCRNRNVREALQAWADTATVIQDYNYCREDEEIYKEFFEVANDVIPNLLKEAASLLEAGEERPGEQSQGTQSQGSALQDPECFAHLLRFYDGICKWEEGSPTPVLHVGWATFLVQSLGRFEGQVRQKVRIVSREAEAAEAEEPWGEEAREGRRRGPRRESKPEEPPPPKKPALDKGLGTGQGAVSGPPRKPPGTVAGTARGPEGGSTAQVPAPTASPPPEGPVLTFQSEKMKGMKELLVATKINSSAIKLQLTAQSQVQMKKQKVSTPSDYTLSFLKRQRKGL

Assays:
[1] = biological target: Wild-type Menin-MLL (Homo sapiens, UniProt O00255); experiment: Fluorescence polarization binding assay (FP assay), inhibition of wild-type Menin-MLL binding; conditions: read-out: IC50 (nM) Menin^wt, 5 nM Menin, 2 nM FITC-MLL (4-43), 23 °C, 1 hour
Text: Wild-type Menin binds with high affinity to the conserved N-terminal sequence of MLL. Compounds bind to Menin by competing with the MLL N-terminus. FITC-MLL (4-43) (synthesized by GenScript) contains the conserved sequence responsible for MLL binding to Menin. We established a method to detect the binding activity between Menin and MLL using a fluorescence polarization binding assay (FP assay), which was then used to evaluate the inhibitory activity of compounds. The specific procedure is as follows: Compounds were serially diluted 5-fold in 100% DMSO starting from 1 mM (8 concentrations in total). For each concentration, 2 µL was added to 48 µL of reaction buffer (50 mM NaCl, 50 mM Tris (pH 7.5), 0.05% Tween-20, 1 mM DTT) and mixed thoroughly to obtain 4× compound solutions (reaching final assay concentrations of 10000, 2000, 400, 80, 16, 3.2, 0.64, 0 nM) for later use. Use reaction buffer to prepare 2× Menin to a final assay concentration of 5 nM, and 4× FITC-MLL (4-43) to a final assay concentration of 2 nM. Add 5 µL of the 4× compound solution to a 384-well plate (OptiPlate-384, purchased from PerkinElmer). Then add 10 µL of the 2× Menin solution and centrifuge. After that, add 5 µL of FITC-MLL (4-43) and centrifuge again to initiate the reaction. Incubate at 23 °C for 1 hour protected from light. After the reaction, the signal was read on an EnVision 2104 Multilabel Reader (purchased from PerkinElmer) at an excitation wavelength of 480 nm and an emission wavelength of 535 nm. The data were analyzed using GraphPad Prism (data analysis software) to obtain the IC50 values of the compounds.

[2] = biological target: Menin^M327I (Homo sapiens, UniProt O00255, M322I); experiment: Fluorescence polarization binding assay (FP assay), inhibition of mutant Menin-MLL binding; conditions: read-out: IC50 (nM) Menin^M327I, 5 nM Menin^mut, 2 nM FITC-MLL (4-43), 23 °C, 1 hour
Text: The Menin^mut DNA sequence was cloned into the pET28a vector via restriction enzyme digestion and ligation. The recombinant protein was expressed using the BL21 E. coli system and purified by Ni-NTA to obtain Menin^mut. Menin binds with high affinity to the conserved N-terminal sequence of MLL, and compounds bind to Menin by competing with the MLL N-terminus. FITC-MLL (4-43) (synthesized by GenScript) contains the conserved sequence responsible for MLL binding to Menin. We employed a fluorescence polarization binding assay (FP assay) based on the principle that the binding of FITC-MLL (4-43) to Menin^mut increases the molecular weight and enhances fluorescence, to evaluate the inhibitory effect of compounds on the binding between Menin^mut and MLL. The detailed procedure is as follows: Compounds were dissolved in DMSO to a final concentration of 10 mM. The 10 mM compound solution was then diluted 10-fold with DMSO, followed by 5-fold serial dilutions to obtain a total of 8 concentrations. For each concentration, 2 µL was added to 48 µL of reaction buffer (50 mM NaCl, 50 mM Tris, pH 7.5, 0.05% Tween-20, 1 mM DTT) and mixed thoroughly to obtain 4× compound solutions (reaching final assay concentrations of 10000, 2000, 400, 80, 16, 3.2, 0.64, 0 nM) for later use. Use reaction buffer to prepare 2× Menin^mut to a final assay concentration of 5 nM, and 4× FITC-MLL (4-43) to a final assay concentration of 2 nM. Add 5 µL of the 4× compound solution to a 384-well plate (OptiPlate-384, purchased from PerkinElmer). Then add 10 µL of the 2× Meninmut solution and centrifuge. After that, add 5 µL of FITC-MLL (4-43) and briefly centrifuge to initiate the reaction. Incubate at 23 °C for 1 hour protected from light. After the reaction, the signal was read on an EnVision 2104 Multilabel Reader (purchased from PerkinElmer) at an excitation wavelength of 480 nm and an emission wavelength of 535 nm. For each compound, the inhibitory effect was determined at 8 concentrations. The data were processed using GraphPad Prism software to calculate the half-maximal inhibitory concentration (IC50) of the compound for Menin-MLL binding.

[3] = tested on: MV-4-11 cells expressing wild-type Menin protein; experiment: MV-4-11 cell proliferation inhibition (CellTiter-Blue); conditions: read-out: IC50 (nM) MV-4-11, 72 hours incubation
Protocol: MV-4-11 cells are human acute myeloid leukemia cells that contain the MLL-AF4 fusion protein. In this experiment, after incubating different concentrations of the compounds with MV-4-11 cells, the CellTiter-Blue® detection reagent from Promega was used to establish a screening method for the inhibition of MV-4-11 cell proliferation.
MV-4-11 cells were cultured in RPMI-1640 medium (Biological Industries, Cat. No. 01-100-1ACS) supplemented with 10% fetal bovine serum (Biological Industries, Cat. No. 04-001-1ACS), under conditions of 37°C and 5% CO2. The cells were subcultured 2 - 3 times per week. Cells were seeded into 96-well cell culture plates (Corning®) at 5,000 cells per well in 195 µL/well and incubated at 37°C with 5% CO2. After 24 hours, compounds were serially diluted 3-fold in 100% DMSO starting from 10 mM (10 concentrations in total). Then, 4 µL of each compound concentration was added to 96 µL of RPMI-1640 medium and mixed well. Subsequently, 5 µL of the diluted compound from each concentration was added to the prepared cell suspension, and the compounds were co-incubated with the cells in a cell culture incubator for 72 hours (3 days). Then, 35 µL of CellTiter-Blue reagent (Promega, Cat. No. G8082) was added, and the reaction was incubated at 37°C with 5% CO2 for 4 hours. Fluorescence values were read on a BMG Clariostar Microplate Reader, and the data were processed using GraphPad Prism software to calculate the IC50 value of the compound for cell proliferation inhibition.

[4] = tested on: Menin^M327I/MOLM13 cells; experiment: Menin^M327I/MOLM13 cell proliferation inhibition (CellTiter-Glo); conditions: read-out: IC50 (nM) Menin^M327I/MOLM13, 7 days incubation
Protocol: The Menin^M327I DNA sequence was inserted into the lentiviral vector pCDHL-CMV-3xFlag-puroR via restriction enzyme digestion and ligation. The construct was co-transfected with psPAX2/pMD2G into 293T cells. After 48 hours, the virus was harvested and used to infect MOLM13 cells. Pool and monoclonal selections were performed using puromycin to ultimately obtain a stable cell line stably expressing the Menin^M327I recombinant protein.
MOLM13 cells are human acute myeloid leukemia cells that contain the MLL-AF9 fusion protein. In this experiment, different concentrations of compounds will be incubated with Menin^M327I/MOLM13 cells for 7 days, and viable cells will be detected using Promega's CellTiter-Glo assay.
MOLM13 cells were cultured in RPMI-1640 medium supplemented with 20% fetal bovine serum. One day prior to compound addition, cells were seeded into 96-well cell culture plates at 500 cells per well in a volume of 195 µL per well. Compounds were dissolved in DMSO to a final concentration of 10 mM. The 10 mM compound stock was then serially diluted 3-fold in DMSO to obtain 10 concentrations. For each concentration, 2 µL was taken and added to 48 µL of RPMI-1640 medium for a 25-fold dilution, and then added as a 40× compound to the prepared cell suspension. After co-incubation in the incubator for 7 days, 35 µL of Cell-Titer Glo was added, and the mixture was allowed to stand at room temperature for 10 minutes. Fluorescence signals were read on a CLARIO starPlus instrument, and finally the IC50 value for cell proliferation inhibition was calculated using GraphPad Prism 5.0.

[5] = Pharmacokinetic study in SD rats; conditions: male SD rats, oral, 10 mg/kg, 0.5% MC + 0.1% SDS
Protocol: Male SD rats were obtained from Beijing Vital River Laboratory Animal Technology Co., Ltd. The rats were divided into groups of three animals each, and the test sample suspension (10 mg/kg, formulated in 0.5% MC + 0.1% SDS) was administered orally by gavage. The animals were fasted overnight prior to the experiment, with food withheld from 10 hours before dosing until 4 hours after dosing. Blood samples were collected at 0.25, 0.5, 1, 2, 4, 6, 8, and 24 hours after dosing. Following anesthesia with isoflurane using a small animal anesthesia machine, 0.3 mL of whole blood was collected from the retro-orbital venous plexus into heparin anticoagulant tubes. The samples were centrifuged at 4000 rpm for 5 minutes at 4°C, and the plasma was transferred to centrifuge tubes and stored at -80 °C until analysis. Plasma samples were extracted using the protein precipitation method, and the extracts were analyzed by LC/MS. Table 3. Pharmacokinetic parameters of the example compounds.

| IC50 [1] [nM] | IC50 [2] [nM] | IC50 [3] [nM] | IC50 [4] [nM] | AUC0-inf [5] [µg·h/mL] | Cmax [5] [µg/mL] | T1/2 [5] [h] | Tmax [5] [h] | SMILES |
| --- | --- | --- | --- | --- | --- | --- | --- | --- |
| 10.4 | 6 | 1.8 | 7.2 | – | – | – | – | CCN(C(=O)c1cc(F)ccc1-n1cc(C2CCN(C(CCCN(C)CCOC)C(C)C)CC2)c2ccncc21)C(C)C (stereo not drawn) |
| 8.1 | 6.1 | 5.8 | 24.2 | – | – | – | – | CCN(C(=O)c1cc(F)ccc1-n1c2c(c3c(Cl)cncc31)CC1(C2)CN(C(CCCN(C)CCOC)C(C)C)C1)C(C)C (stereo not drawn) |
| 8.1 | 6.8 | 3.8 | 12.4 | – | – | – | – | CCN(C(=O)c1cc(F)ccc1-n1c2c(c3c(C)cncc31)CC1(CC2)CCN(C(CCCN(C)CCOC)C(C)C)CC1)C(C)C (stereo not drawn) |
| 10 | 7.4 | 8.2 | 29.2 | – | – | – | – | CCN(C(=O)c1cc(F)ccc1-n1c2c(c3c(F)cncc31)CC1(CC2)CN(C(CCCN(C)CCOC)C(C)C)C1)C(C)C (stereo not drawn) |
| – | – | – | – | 1.491 | 0.101 | 9.09 | 5.33 | CCN(C(=O)c1cc(F)ccc1-n1c2c(c3c(C)cncc31)OC1(C2)CN(C(CCCN(C)CCOC)C(C)C)C1)C(C)C (stereo not drawn) |
| 11.1 | 9 | 4.8 | 24.2 | 0.633 | 0.0667 | 21.2 | 1.67 | CCN(C(=O)c1cc(F)ccc1-n1c2c(c3c(C)cncc31)CC1(C2)CN(C(CCCN(C)CCOC)C(C)C)C1)C(C)C (racemic) |
| 11.2 | 3.3 | 1.9 | 6.5 | – | – | – | – | CCN(C(=O)c1cc(F)ccc1-n1c2c(c3c(C)cncc31)CC1(CC2)CCN(C(CCCN(C)CCOC)C(C)C)C1)C(C)C (stereo not drawn) |
| 4 | 2.9 | 7.4 | 18.2 | – | – | – | – | CCN(C(=O)c1cc(F)ccc1-n1c2c(c3c(C)cncc31)CC1(C2)CN([C@H](CCCN(C)CCOC)C(C)C)C1)C(C)C |
| 28 | 11.4 | – | – | – | – | – | – | COCCN(C)CCCC(C(C)C)N1CC2(Cc3c(n(-c4ccc(F)cc4C(=O)N(C(C)C)C(C)C)c4cncc(C)c34)C2)C1 (stereo not drawn) |

The next lines start with the molecule.

| SMILES | IC50 [1] [nM] | IC50 [2] [nM] | IC50 [3] [nM] | IC50 [4] [nM] | AUC0-inf [5] [µg·h/mL] | Cmax [5] [µg/mL] | T1/2 [5] [h] | Tmax [5] [h] |
| --- | --- | --- | --- | --- | --- | --- | --- | --- |
| CCN(C(=O)c1cc(F)ccc1-n1c2c(c3c(Cl)cncc31)CC1(CC2)CN([C@H](CCCN(C)CCOC)C(C)C)C1)C(C)C | 1.9 | 2.5 | 2.1 | 11.5 | 0.593 | 0.0433 | 11.7 | 6.00 |
| CCN(C(=O)c1cc(F)ccc1-n1c2c(c3c(C)cncc31)CC1(C2)CN([C@@H](CCCN(C)CCOC)C(C)C)C1)C(C)C | 8.1 | 4.5 | – | – | – | – | – | – |
| CCN(C(=O)c1cc(F)ccc1-n1c2c(c3c(C)cncc31)CC1(CC2)CN(C(CCCN(C)CCOC)C(C)C)C1)C(C)C (racemic) | 8 | 3.8 | 6.4 | 39 | 0.956 | 0.166 | 9.16 | 2.67 |
| CCN(C(=O)c1cc(F)ccc1-n1c2c(c3c(Cl)cncc31)CC1(CC2)CN(C(CCCN(C)CCOC)C(C)C)C1)C(C)C (racemic) | 6.2 | 3.1 | 6.5 | 26.1 | 0.598 | 0.0535 | 15.2 | 4.08 |
| COCCN(C)CCCC(C(C)C)N1CC2(CCc3c(c4c(C)cncc4n3-c3ccc(F)cc3C(=O)N(C(C)C)C(C)C)C2)C1 (stereo not drawn) | 8.5 | 2.8 | 5.2 | 16.3 | – | – | – | – |
| CCN(C(=O)c1cc(F)ccc1-n1c2c(c3c(Cl)cncc31)CC1(CC2)CN([C@@H](CCCN(C)CCOC)C(C)C)C1)C(C)C | 10.7 | 19.9 | – | – | – | – | – | – |
| COCCN(C)CCCC(C(C)C)N1CCC2(CCc3c(c4c(C)cncc4n3-c3ccc(F)cc3C(=O)N(C(C)C)C(C)C)C2)C1 (stereo not drawn) | 10.9 | 3.7 | 3.5 | 10 | – | – | – | – |
| CCN(C(=O)c1cc(F)ccc1-n1c2c(c3c(C)cncc31)CC1(CCN(C(CCCN(C)CCOC)C(C)C)CC1)C2)C(C)C (stereo not drawn) | 5.6 | 4.6 | 1.8 | 8.2 | – | – | – | – |
